These results are taken from US20180344768A1, “NK CELL-BASED THERAPY” (Onkimmune Limited, priority 2016, published 2018).

The assay deals with p-STAT3, p-SHP1, p-SHP2, p-P44/42. In words: IL-6 / IL-2 signaling in KHYG-1 cells, gel electrophoresis. It is filed as cell-based, human. The conditions noted are these: KHYG-1 cells starved of IL-2 for 6 hours, cytokine alone (IL-2 10 ng/mL or IL-6 100 ng/mL). From the text:
PE labeled mouse anti-human CD126 (IL-6 receptor alpha chain) (Catalog: 551850), PE labeled mouse anti-human CD130 (gp130, IL-6 receptor-associated signal transducer) (Catalog #:555757), PE-labeled Mouse IgG1 k isotype control (Catalog: 555749), APC-labeled mouse anti-human CD2 (Catalog: 560642), FITC-labeled mouse anti-human CD2 (Catalog: 555326), APC-labeled mouse anti-human PD-L1 (Catalog: 563741) and APC-labeled mouse anti-human PD-L2 (Catalog: 557926) were bought from BD Pharmingen. APC-labeled mouse anti-human PD1 antibody (Catalog: 329907) was bought from Biolegend. Phosphor-Stat3(Ser727) mouse mAb (Catalog:9136), Phosphor-Shp-1(Tyr564) rabbit mAb (Catalog; 8849), Phosphor-Shp-2(Tyr580) rabbit mAb (Catalog: 5431), Phospho-p44/42 MAPK (Erk1/2) (Thr202/Tyr204) rabbit mAb (Catalog: 4370) and p44/42 MAPK (Erk1/2) rabbit mAb were bought from Cell Signaling Technology. Phosphor-Stat3(Tyr705) mouse mAb (Catalog: sc-81523) and rabbit anti-human Stat3 polyclonal antibody (Catalog: sc-7179) were bought from Santa Cruz Biotechnology. Mouse anti-beta actin (Catalog: A5441) was bought from SIGMA-ALDRICH. Functional IL-6 blocking antibody (Catalog: 501110) and the related isotype control antibody (Catalog: 400414) were bought from Biolegend.
KHYG-1 cells were cultivated and maintained as mentioned above. When testing the effects of IL-6 alone, KHYG-1 cells were starved in RPMI160 medium supplemented with 10% FBS (no IL-2) for 6 hours, then stimulated with 10 ng/mL of IL-2 and/or 100 ng/mL of IL-6.

For the substance “IL-2: Recombinant Human IL-2 (Catalog: 200-02) from PEPROTECH”, the p-P44/42 entry is on record as “activated”, the p-SHP1 result was “decreased expression”, the p-SHP2 entry is on record as “decreased expression” and the p-STAT3 result is on record as “activated”.
